Apparent affinities of Ab-91 variants for a coronavirus HR2 peptide

All variants were tested on one target, the spike HR2 peptide PDVDLGDISGINAS (SARS-CoV-2).

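Phage display of a naive human antibody library on the peptide gave the parent. The library (AAYL51) carries one to three amino acid substitutions per variant, with no insertions or deletions. Affinity was read by AlphaSeq, a pooled yeast mating assay with surface-displayed partners. Binding brings cells together so that they mate, and sequencing counts the barcode pairs among the diploids. The ratio of observed to expected reads was calibrated, replicate by replicate, on BCL2-family standards whose Kd was known from biolayer interferometry. Mating was done three times.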

Parent: Ab-91, a human scFv built as VL, the linker GGGGSGGGGSGGGGS, VH. Only the CDRs of the heavy chain vary.
VL: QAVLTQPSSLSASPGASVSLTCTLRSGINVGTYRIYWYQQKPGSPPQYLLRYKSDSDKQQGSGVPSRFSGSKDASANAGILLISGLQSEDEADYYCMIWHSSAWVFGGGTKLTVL
VH: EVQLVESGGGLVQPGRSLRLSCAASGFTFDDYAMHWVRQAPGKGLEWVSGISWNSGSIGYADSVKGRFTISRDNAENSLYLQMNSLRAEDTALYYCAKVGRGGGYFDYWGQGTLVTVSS

Variants are written as CDR1, CDR2 and CDR3 of the heavy chain (limits as in the source). Parent: GFTFDDYAMH, GISWNSGSIGYADSVK, VGRGGGYFDY. Scale: log10 of Kd in nM, estimated from mating counts; low values are strong binders. Replicates are averaged; those with no signal do not enter the mean. "no signal" means that the variant was in the library but no mating with the target was seen in any replicate; the authors take this as a sign of poor binding, and no number exists. Three control strains display no target. For library AAYL51, 21% of the pairings with them gave a signal, with a median of 4.54 and one signal in twenty below 3.26, so weak values seen in few replicates may be background.

CDR-H1	CDR-H2	CDR-H3	mean log10 Kd (nM)	replicates with signal
GFTFDDYWMH	GISWNSGANGYADSVK	VGRGGGYFDY	5.34	2/3
GATFDDYAMH	GISWNSGSMGYADDVK	VGRGGGYFDY	no signal	0/3
IFTFDDYKMH	GISWNSGSIGYADSVK	VGRGGGEFDY	4.99	3/3
GFTFDDYAQH	GISWNSGSIGYAASVK	VGRGPGYFDY	5.42	2/3
GFTFDDYAMH	GISWNSGSIGYADSVK	VSIGGGYPDY	no signal	0/3
GFKFDDYAMH	GISNNSYSIGYADSVK	VGRGGGYFDY	3.65	3/3
GFTFDDYAMA	GISWNSGSIGYADSVM	VGRGGGYFVY	4.69	1/3
GFTFDDYAMN	GISWNSGSIGYADSWK	VGRGGGYFDM	3.82	1/3
MFTFDDYAMH	GISWNSGSIGYADSVS	VGRGGGYFDT	no signal	0/3
GFTFDDYAMH	GISWNSGSIGEADTVK	VGHGGGYFDY	6.16	2/3
GFTEDDYAMH	GISQNSGAIGYADSVK	VGRGGGYFDY	1.81	1/3
GFTFDDLAMH	GISWNSGSIGAADSVK	VGRGWGYFDY	3.76	1/3
GFTFDDYAMF	GISWNSGSIPYADSVV	VGRGGGYFDY	no signal	0/3
GFTFDDYAMH	GIHWNSGQIGYEDSVK	VGRGGGYFDY	no signal	0/3
GQTFDDYAMH	GISWNSGSIGYADSVK	VGRGKGYFDN	3.35	1/3
GFTFDDYAMH	GISWNSGSICYADVVK	VFRGGGYFDY	5.24	3/3
GFTFDDYAMG	GISWGSGSIGYALSVK	VGRGGGYFDY	4.32	1/3
GFTFDDYAMH	GISWNSGSIGYADSNK	VGRGGGYFAY	5.49	3/3
GFIFDDEAMH	GISWNSGSIGYADSVK	VGRGGGYFDY	no signal	0/3
GFTFDDYAMH	GISWNSGSIPYIDSMK	VGRGGGYFDY	3.27	1/3
GFTFDDYAMH	GISWLSGSIGYADSVK	VGRGTGGFDY	no signal	0/3
GFTFDDYAMH	GISWNSGSVGYADSSK	VGRGGGYFDY	2.97	3/3
GFTADDYAMH	GIGWNSGSIGYADSVK	VGRGGGYFCY	no signal	0/3
GFTFDDYAMM	GISKNSGSIGYADSVK	VGRGYGYFDY	5.83	1/3
GFTFDDYIMH	GRSWNSGSIGYADSGK	VGRGGGYFDY	5.18	1/3
GDTFDDYAMH	GISWNSGSIGYADSVK	YGRGGGYFFY	no signal	0/3
GFTFDDYAMH	GISGNSGSIWYADSVK	VGRGGNYFDY	no signal	0/3
GFTFAHYAMH	GISANSGSIGYADSVK	VGRGGGYFDY	1.16	3/3
GFTFNDYAMH	GISWNSGSICRADSVK	VGRGGGYFDY	4.08	2/3
MFTFDIYAMH	GISWNSGIIGYADSVK	VGRGGGYFDY	4.53	2/3
GFYFDDYAMH	GISWNSGSIGYADSVQ	VWRGGGYFDY	4.76	2/3
GFTFDDYAMH	GISWNSGSRGYADSVK	VGRGGGLSDY	1.48	3/3
GFTFDDYAMH	GISWNSGKIGYADSVK	VGRGGGWEDY	3.24	1/3
GVTFDDYAYH	GIQWNSGSIGYADSVK	VGRGGGYFDY	4.05	3/3
GFTFDDYAMH	GISWNSGSIYYADKVK	VGRGGGYHDY	no signal	0/3
GFTFDDGAMH	GISWNDGSIGYADSVK	VGRGIGYFDY	no signal	0/3
GFTFDDYAMH	GISTNSGSGGYADSVK	VGRGGGYFDM	4.39	2/3
WFTFDDVAMH	GISWNSGRIGYADSVK	VGRGGGYFDY	5.01	3/3
GFTFDDYAMH	GISWNSGSFGYADTVK	LGRGGGYFDY	1.89	3/3
GFTFDDYAMH	VIWWNSGSIGYADDVK	VGRGGGYFDY	4.81	1/3
GFTFDDYAMH	GISWNSGSIPYADSHK	VGRGGGYLDY	4.36	3/3
GFTFNDYAMH	GISWNSGSIGYADSEK	VGRGGGYADY	4.17	1/3
GFTFDDYAMH	GISWNSGSIGHADSSE	VGRGGGYFDY	4.98	1/3
GFTFDDYAMH	GISWNSGFIGYADSVK	DGRGGGYEDY	4.55	2/3
GFTFNDYIMH	GISWNSGSIGYSDSVK	VGRGGGYFDY	4.79	2/3
GFTFPDEAMH	GISWNSHSIGYADSVK	VGRGGGYFDY	3.57	1/3
GFTFDDYAMH	GISWNSGSIGYADSLK	IGRGGGYFDY	5.44	1/3
GFTFDDQNMH	GWSWNSGSIGYADSVK	VGRGGGYFDY	no signal	0/3
GFTFDDYAMH	YISWNSGSIIYAKSVK	VGRGGGYFDY	no signal	0/3
GFWFDDYIMH	GISWNSGSIGYADSVK	VGRGEGYFDY	5.59	2/3
SFTFDDYAMH	DISWNNGSIGYADSVK	VGRGGGYFDY	4.16	3/3
GFTFDDYAMH	GISQNSGSIGYAGSVK	VGRGVGYFDY	3.05	3/3
GFTFDDYAMH	GISWNSGLIGYAMSVK	VGRGGPYFDY	no signal	0/3
GFTFDDYAMH	GISWNSGSIGLADSVK	VGRGGGPFDY	5.39	2/3
GFTMDDYVMH	GISWNSGSIGYALSVK	VGRGGGYFDY	no signal	0/3
IFTFDDYAMH	GPSWNSGSIGYADSGK	VGRGGGYFDY	4.18	1/3
GFTVDDYAMH	GISWNSGSIFYAVSVK	VGRGGGYFDY	4.79	1/3
GFTFDDYAMH	GISWNSGSIGYADSVK	IQRGYGYFDY	4.85	2/3
GFTFDDYAMH	GISWNSGSIGYADSVK	KGRGNGYFYY	no signal	0/3
GFTFDWYAMH	GISWNSGSIGYADSVK	VGRGGHIFDY	1.42	3/3
GFTFDDYADH	GISWNSGSIGHADSVK	VGRDGGYFDY	no signal	0/3
GFTFDDYAMH	GISWNSGSIGYADCVD	VGRGGNYFDY	1.16	3/3
GFTFDDYGMH	GISWNSGSKGYADSVK	VGRGGLYFDY	-0.14	3/3
GFTFDDYSMH	GISWNSMSIGYADSLK	VGRGGGYFDY	3.79	2/3
GFTFDDYAMF	GISWNSGSIGYADSVK	VVRRGGYFDY	4.58	1/3
GFTFDDHAMH	GGSWNSGSIGYADSVA	VGRGGGYFDY	no signal	0/3
GFTFDDYAMH	GISWQSGSIGYADSAK	VGRGTGYFDY	4.94	2/3
GITFDDYTMH	GISWNSGNIGYADSVK	VGRGGGYFDY	4.82	1/3
GFTQDDYAML	GISCNSGSIGYADSVK	VGRGGGYFDY	no signal	0/3
GYTFDDYAMH	KISWNSGSIGYADSVK	VGRGYGYFDY	4.58	1/3

Values reported by Engelhart et al. 2022, doi:10.1038/s41597-022-01779-4 (FLAb copy).